Assay results from patent publication US6630179B1, “Oxihumic acid and its use in the treatment of various conditions” (priority 1998, dated 2003).

Assay: Study 1506: Acute eye irritation/corrosion test in rabbits
Details: rabbit, in vivo
Text: Study 1506: Acute Eye Irritation/corrosion Test in Rabbits

Potassium oxihumate
iris lesion: non-irritant
